Assay results taken from patent US20230241187A1.

How the values were obtained:
[1] = target: CI-MPR on rat L6 myoblasts (rat); experiment: cell-based or functional assay
insulin receptor (IR) [2] = experiment: competition ELISA, plate-bound Insulin-R, 20 nM insulin-biotin, competitor 125 nM, average
insulin receptor (IR) [3] = experiment: competition ELISA, plate-bound Insulin-R, 20 nM insulin-biotin, competitor 250 nM, average
insulin receptor (IR) [4] = experiment: competition ELISA, plate-bound Insulin-R, 20 nM insulin-biotin, competitor 500 nM, average
insulin receptor (IR) [5] = experiment: competition ELISA, plate-bound Insulin-R, 20 nM insulin-biotin, competitor 1000 nM, average
insulin receptor (IR) [6] = experiment: competition ELISA, plate-bound Insulin-R, 20 nM insulin-biotin, competitor 2000 nM, average
insulin receptor (IR) [7] = experiment: competition ELISA, plate-bound Insulin-R, 20 nM insulin-biotin, competitor 4000 nM, average
insulin receptor (IR) [8] = experiment: competition ELISA, plate-bound Insulin-R, 20 nM insulin-biotin, competitor 62.5 nM, average
insulin receptor (IR) [9] = experiment: competition ELISA, plate-bound Insulin-R, 20 nM insulin-biotin, competitor 31.25 nM, average
insulin receptor (IR) [10] = experiment: competition ELISA, plate-bound Insulin-R, 20 nM insulin-biotin, competitor 15.625 nM, average
insulin receptor (IR) [11] = experiment: competition ELISA, plate-bound Insulin-R, 20 nM insulin-biotin, competitor 7.8125 nM, average
insulin receptor (IR) [12] = experiment: competition ELISA, plate-bound Insulin-R, 20 nM insulin-biotin, competitor 125 nM, replicate 1
insulin receptor (IR) [13] = experiment: competition ELISA, plate-bound Insulin-R, 20 nM insulin-biotin, competitor 125 nM, replicate 2
insulin receptor (IR) [14] = experiment: competition ELISA, plate-bound Insulin-R, 20 nM insulin-biotin, competitor 250 nM, replicate 1
insulin receptor (IR) [15] = experiment: competition ELISA, plate-bound Insulin-R, 20 nM insulin-biotin, competitor 250 nM, replicate 2
insulin receptor (IR) [16] = experiment: competition ELISA, plate-bound Insulin-R, 20 nM insulin-biotin, competitor 3.90625 nM, average
insulin receptor (IR) [17] = experiment: competition ELISA, plate-bound Insulin-R, 20 nM insulin-biotin, competitor 500 nM, replicate 1
insulin receptor (IR) [18] = experiment: competition ELISA, plate-bound Insulin-R, 20 nM insulin-biotin, competitor 500 nM, replicate 2
insulin receptor (IR) [19] = experiment: competition ELISA, plate-bound Insulin-R, 20 nM insulin-biotin, competitor 1000 nM, replicate 1
insulin receptor (IR) [20] = experiment: competition ELISA, plate-bound Insulin-R, 20 nM insulin-biotin, competitor 1000 nM, replicate 2
insulin receptor (IR) [21] = experiment: competition ELISA, plate-bound Insulin-R, 20 nM insulin-biotin, competitor 2000 nM, replicate 1
insulin receptor (IR) [22] = experiment: competition ELISA, plate-bound Insulin-R, 20 nM insulin-biotin, competitor 2000 nM, replicate 2
insulin receptor (IR) [23] = experiment: competition ELISA, plate-bound Insulin-R, 20 nM insulin-biotin, competitor 4000 nM, replicate 1
insulin receptor (IR) [24] = experiment: competition ELISA, plate-bound Insulin-R, 20 nM insulin-biotin, competitor 4000 nM, replicate 2
insulin receptor (IR) [25] = experiment: competition ELISA, plate-bound Insulin-R, 20 nM insulin-biotin, competitor 62.5 nM, replicate 1
insulin receptor (IR) [26] = experiment: competition ELISA, plate-bound Insulin-R, 20 nM insulin-biotin, competitor 62.5 nM, replicate 2
insulin receptor (IR) [27] = experiment: competition ELISA, plate-bound Insulin-R, 20 nM insulin-biotin, competitor 31.25 nM, replicate 1
insulin receptor (IR) [28] = experiment: competition ELISA, plate-bound Insulin-R, 20 nM insulin-biotin, competitor 31.25 nM, replicate 2
insulin receptor (IR) [29] = experiment: competition ELISA, plate-bound Insulin-R, 20 nM insulin-biotin, competitor 15.625 nM, replicate 1
insulin receptor (IR) [30] = experiment: competition ELISA, plate-bound Insulin-R, 20 nM insulin-biotin, competitor 15.625 nM, replicate 2
insulin receptor (IR) [31] = experiment: competition ELISA, plate-bound Insulin-R, 20 nM insulin-biotin, competitor 7.8125 nM, replicate 1
insulin receptor (IR) [32] = experiment: competition ELISA, plate-bound Insulin-R, 20 nM insulin-biotin, competitor 7.8125 nM, replicate 2
insulin receptor (IR) [33] = experiment: competition ELISA, plate-bound Insulin-R, 20 nM insulin-biotin, competitor 3.90625 nM, replicate 1
insulin receptor (IR) [34] = experiment: competition ELISA, plate-bound Insulin-R, 20 nM insulin-biotin, competitor 3.90625 nM, replicate 2

- Kuptake (uptake into rat L6 myoblasts; partially purified ZC-701) [1]: 5 nM
- Kuptake (uptake into rat L6 myoblasts; purified ZC-701) [1]: 2.6 nM
- Chemiluminescence Intensity (insulin receptor (IR) [2]): 1180
- Chemiluminescence Intensity (insulin receptor (IR) [3]): 784
- Chemiluminescence Intensity (insulin receptor (IR) [4]): 744
- Chemiluminescence Intensity (insulin receptor (IR) [5]): 504
- Chemiluminescence Intensity (insulin receptor (IR) [6]): 358
- Chemiluminescence Intensity (insulin receptor (IR) [7]): 220
- Chemiluminescence Intensity (insulin receptor (IR) [8]): 1070
- Chemiluminescence Intensity (insulin receptor (IR) [9]): 1110
- Chemiluminescence Intensity (insulin receptor (IR) [10]): 1470
- Chemiluminescence Intensity (insulin receptor (IR) [11]): 1180
- Chemiluminescence Intensity (insulin receptor (IR) [12]): 1280
- Chemiluminescence Intensity (insulin receptor (IR) [13]): 1070
- Chemiluminescence Intensity (insulin receptor (IR) [14]): 800
- Chemiluminescence Intensity (insulin receptor (IR) [15]): 767
- Chemiluminescence Intensity (insulin receptor (IR) [16]): 1340
- Chemiluminescence Intensity (insulin receptor (IR) [17]): 715
- Chemiluminescence Intensity (insulin receptor (IR) [18]): 774
- Chemiluminescence Intensity (insulin receptor (IR) [19]): 526
- Chemiluminescence Intensity (insulin receptor (IR) [20]): 483
- Chemiluminescence Intensity (insulin receptor (IR) [21]): 387
- Chemiluminescence Intensity (insulin receptor (IR) [22]): 329
- Chemiluminescence Intensity (insulin receptor (IR) [23]): 191
- Chemiluminescence Intensity (insulin receptor (IR) [24]): 250
- Chemiluminescence Intensity (insulin receptor (IR) [25]): 1120
- Chemiluminescence Intensity (insulin receptor (IR) [26]): 1024
- Chemiluminescence Intensity (insulin receptor (IR) [27]): 1250
- Chemiluminescence Intensity (insulin receptor (IR) [28]): 968
- Chemiluminescence Intensity (insulin receptor (IR) [29]): 1470
- Chemiluminescence Intensity (insulin receptor (IR) [30]): 1470
- Chemiluminescence Intensity (insulin receptor (IR) [31]): 1240
- Chemiluminescence Intensity (insulin receptor (IR) [32]): 1120
- Chemiluminescence Intensity (insulin receptor (IR) [33]): 1450
- Chemiluminescence Intensity (insulin receptor (IR) [34]): 1230
Substance: ZC-701 (GILTΔ2-7-GAA70-952) (from UniProt P10253 70-952) (enzyme)
